# Reference: published antibiotic growth screens (doi:10.1038/s41589-023-01349-8)
# The other results are listed elsewhere or left out.
# Tested on: A. baumannii ATCC 17978
# Test: relative growth (fraction of control); higher = less inhibition
# Conditions: 50 µM
row,Structure (SMILES),relative growth
1,CCCCOC(=O)C1=CC(=O)CC(C)(C)O1,0.862
2,CC(C)(O)[C@@H]1[C@H]2OC(=O)[C@@H]1[C@]1(O)C[C@H]3O[C@]34C(=O)O[C@H]2[C@]14C,1.07
3,O=C([O-])Cc1ccccc1.[Na+],1.08
4,C=CC[C@]1(O)CCC2C3CCC4=CC(=O)CCC4=C3C=C[C@@]21C (some centres not stated),0.902
5,CN(C)C(=O)C(CCN1CCC(O)(c2ccc(Cl)cc2)CC1)(c1ccccc1)c1ccccc1.Cl,0.891
6,CC(C)c1ccc2c(c1)[C@H](O)[C@H](N)CCO2,0.962
7,CC[C@H]1CN2CCC1C[C@@H]2[C@@H](O)c1ccnc2ccc(OC)cc12 (some centres not stated),0.879
8,CC1=C2CC3[C@@H](CC=C4C[C@@H](O)CC[C@@]43C)[C@@H]2CC[C@]12O[C@@H]1C[C@H](C)CN[C@H]1[C@H]2C (some centres not stated),0.94
9,O=C1C=CC(=O)c2c(O)cccc21,0.97
10,CC[C@@H]1/C=C/C=C/C[C@H](C)[C@@H](O)[C@](C)(O)C(=O)[C@H](C)[C@@H](O)[C@H](C)C(=O)[C@H](C)[C@@H](O)[C@H](C)/C=C/C(=O)O[C@H]2[C@@H](C)[C@@H](CC1)O[C@@]1(CC[C@@H](C)[C@@H](C[C@H](C)O)O1)[C@@H]2C,0.874
11,CC[C@H](c1cccc(O)c1)[C@@H](C)CN(C)C.Cl,1.17
12,O=C1C[C@H](c2ccccc2)[C@@H]2CNCCN12,0.942
13,Cl.NCCc1cc(O)c(O)cc1O,0.967
14,C[N+](C)(C)CCCCCCCCCC[N+](C)(C)C.[Br-].[Br-],0.995
15,COC(=O)[C@H]1O[C@@H]2C[C@H]3O[C@@H](n4cnc5c(N)ncnc54)[C@H](OC)[C@H]3O[C@@]2(O)[C@@H](O)[C@@H]1O,1.07
16,C=C[C@H]1CN2CC[C@H]1C[C@H]2[C@H](O)c1ccnc2ccccc12,0.853
17,O=C1COC2(CNC2)CN1,1.05
18,COC(=O)C1=CO[C@@H](C)C2CN3CC[C@]4(C(=O)Nc5ccccc54)C3C[C@H]12 (some centres not stated),0.998
19,O=C(O)c1cc(Cl)ccc1Cl,0.917
20,C=C[C@H]1CN2CC[C@H]1C[C@@H]2[C@H](O)c1ccnc2ccccc12,0.986
21,O=C1CC(=O)N(Cc2ccccc2)C(=O)N1,1.02
22,CS(=O)(=O)c1ccc(C(=O)C2C(=O)CCCC2=O)c([N+](=O)[O-])c1,0.992

row,Structure (SMILES),relative growth
1,Br.CC(Cc1ccc(O)cc1)NCC(O)c1cc(O)cc(O)c1 (configuration not stated),0.912
2,OC[C@@H]1CCCN2CCCC[C@H]12,0.987
3,CN1C(=O)[C@]23CC4=CC=C[C@H](O)[C@H]4N2C(=O)[C@@]1(CO)SS3,0.125
4,CCNS(=O)(=O)C(F)(F)C(F)(F)C(F)(F)C(F)(F)C(F)(F)C(F)(F)C(F)(F)C(F)(F)F,0.961
5,C=CCN=C=S,0.83
6,C1CCc2nnnn2CC1,0.947
7,CC(=O)[O][Hg][c]1ccccc1,0.174
8,c1nc(N2CCN3CCC[C@H]3C2)c2[nH]cnc2n1,0.944
9,C[C@H]1O[C@H](n2cnc3c(N)ncnc32)C[C@H]1O,1.24
10,COc1ccc(CN2CCNCC2)c(OC)c1OC.Cl.Cl,1.16
11,C[C@H](N)[C@H](O)c1ccc(O)c(O)c1,0.805
12,CC(=O)Nc1ccc(CCN)cc1,0.895
13,CC1=CC(=O)c2c(O)cccc2C1=O,0.728
14,N[C@@H](Cc1ccc(N(CCCl)CCCl)cc1)C(=O)O,0.982
15,NC(=O)c1ccc(N)nc1,1.04
16,C[C@]12CCC(=O)C=C1CC[C@@H]1C2C(=O)C[C@]2(C)C(=O)CCC12 (some centres not stated),1.18
17,C[N+]1([O-])C2CCC1CC(OC(=O)C(CO)c1ccccc1)C2 (configuration not stated),0.889
18,COc1ccc(Cc2nccc3cc(OC)c(OC)cc23)cc1OC.Cl,1.06
19,O=C1NC(=O)C(C2(O)C(=O)c3ccccc3C2=O)C(=O)N1,1.18
20,C[C@H]1O[C@H](O[C@H]2[C@H](O)[C@@H](O)[C@@H](O)[C@H](O)[C@@H]2O)[C@@H](N)C[C@@H]1NC(=N)C(=O)O.Cl,0.662
21,Cl.NCCc1ccccc1,1.08
22,Cc1ccc(-c2nc3ccc(C)cn3c2CC(=O)N(C)C)cc1,1.33

row,Structure (SMILES),relative growth
1,N#CCCN1CCCC2(CCCC2)C1,0.948
2,Nc1nc(N)nc(NC2CC2)n1,1.2
3,CC(C)(C)C(O)(CCc1ccc(Cl)cc1)Cn1cncn1 (configuration not stated),0.98
4,CCOP(=S)(OCC)SCSP(=S)(OCC)OCC,1.02
5,CC(=O)O[C@H]1C[C@@H](OC(C)=O)C(C)(C)C2C[C@@H](OC(C)=O)[C@]3(C)C(CC[C@@]4(C)[C@H](c5ccoc5)C(=O)[C@H]5O[C@]543)[C@]21C (some centres not stated),1.08
6,O=C(OC1CC2CCC(C1)[N+]21CCCC1)C(O)(c1ccccc1)c1ccccc1.[Cl-] (configuration not stated),1.13
7,COc1cc2c3cc1Oc1c(OC)c(OC)cc4c1[C@@H](Cc1cccc(c1)Oc1ccc(c(O)c1)C[C@@H]3N(C)CC2)N(C)CC4.Cl.Cl,0.998
8,CCCC(C)C1(CC)C(=O)N=C([S-])NC1=O.[Na+] (configuration not stated),1.29
9,Cc1cc(O)ccc1Cl,0.883
10,COc1ccc2cc(CCN)c(=O)[nH]c2c1,0.936
11,C#CC1(O)CCC2C3CCC4=CC(=O)CCC4(C)C3CCC21C (configuration not stated),1.47
12,COC(=O)CC1=C(C(=O)OC)[C@]2(C(=O)Nc3ccccc32)C(C(=O)OC)C(=N)O1 (some centres not stated),0.942
13,CO[C@@H]1C=C[C@@H]2[C@H]1N2CCO (some centres not stated),1.09
14,[N-]=[N+]=NCc1ccccc1C[C@]1(C(=O)N2CCCCC2)N=C(c2ccc(OCCCO)cc2)O[C@H]1c1ccccc1N=[N+]=[N-],1.14
15,CCCCC[C@H]1C(=O)O[C@H](C)[C@H](NC(=O)c2cccc(NC=O)c2O)C(=O)O[C@@H](C)[C@@H]1OC(=O)CC(C)C [ANTIMYCIN A (A1 shown)],0.829
16,C[C@@H]([C@H](O)c1ccccc1)N(C)C,0.923
17,C[C@@H]1CC[C@@]2(NC1)O[C@H]1C[C@H]3C4CC=C5C[C@@H](O)CC[C@]5(C)C4CC[C@]3(C)C1[C@@H]2C (some centres not stated),1.07
18,CN1CCc2cc3c(cc2[C@H]1C1OC(=O)c2c1ccc1c2OCO1)OCO3 (some centres not stated),1.12
19,CC(C)(O)C(Cl)(Cl)Cl,1.1
20,CC(=O)Oc1ccc(/C=C/c2cc(OC(C)=O)cc(OC(C)=O)c2)cc1,1
21,Cl.c1cncc(C2CCCCN2)c1 (configuration not stated),0.932
22,CCCCCCCCCCCCCCCC[n+]1ccccc1.[Cl-],0.248

row,Structure (SMILES),relative growth
1,Cc1noc(C)c1CN1CCNCC1,1.05
2,CCCCCCCCCc1ccc(O)cc1,1.18
3,CC[C@@]1(O)C(=O)OCc2c1cc1n(c2=O)Cc2cc3ccccc3nc2-1,0.993
4,C[N+](C)(C)CC(=O)[O-].Cl,1
5,C#CCOS(=O)OC1CCCCC1Oc1ccc(C(C)(C)C)cc1 (configuration not stated),1.26
6,O=c1[nH]c2cc(N3CCNCC3)ccc2o1,1.08
7,C=C(C)c1cc2cc(C(C)=O)c(O)cc2o1,1.17
8,COc1ccc(C(=O)O[C@H]2CC[C@@]3(C)[C@@H]4CC[C@H]5[C@]6(O)C[C@H](O)[C@@]7(O)[C@@H](CN8C[C@@H](C)CC[C@H]8[C@@]7(C)O)[C@]6(O)C[C@@]53O[C@]24O)cc1OC,0.964
9,COP(=S)(OC)Oc1ccc([N+](=O)[O-])cc1,1.02
10,CC1=NCCc2c1[nH]c1cc(O)ccc21.Cl.O.O,1.13
11,CC(=O)NN1Cc2ccccc2C1=N,1.21
12,CSC1=NN1c1cc(C)nc(N)n1,1.11
13,Fc1ccc(Oc2ccnc3cc(Cl)cc(Cl)c23)cc1,1.11
14,CC1(C)[C@@H](C=C(Br)Br)[C@@H]1C(=O)O[C@@H](C#N)c1cccc(Oc2ccccc2)c1,1.02
15,Cc1[nH]c2ccccc2c1CCN,1.05
16,COc1cc([C@@H]2c3cc4c(cc3[C@H](O)[C@H]3COC(=O)[C@@H]23)OCO4)cc(OC)c1OC,1.13
17,COc1ccc([C@H]2CC(=O)N3CCNC[C@@H]23)cc1,0.948
18,COC(=O)C[C@@H](CN)c1ccc(Cl)cc1,0.992
19,CCCCCCCCCCCCCCCC[N+](C)(C)C.[Br-],0.193
20,C=C(C)[C@@H]1[C@H]2OC(=O)[C@@H]1[C@]1(O)C[C@H]3O[C@]34C(=O)O[C@H]2[C@]14C,1.17
21,O=C1C=C2C=C[C@@H]3C[C@@]2(O1)[C@H]1CCCCN31,1.04
22,NCCO.NCCO.O[AsH]O[AsH]O (configuration not stated),1.11

row,Structure (SMILES),relative growth
1,COc1ccc(C2(CN)CCCC2)cc1,1.03
2,CC(C)=CC1C(C(=O)OCc2cccc(Oc3ccccc3)c2)C1(C)C (configuration not stated),1
3,C[C@@H]1O[C@@H](O[C@@H]2C=C3CCC4C(CC[C@]5(C)[C@@H](c6ccc(=O)oc6)CC[C@]45O)[C@@]3(C)CC2)C(O)C(O)[C@H]1O (some centres not stated),0.965
4,CC(=O)OC1CC[C@@]2(C)C(CCC3C2CC[C@]2(C)C(C4=CC(=O)OC4)C(OC(C)=O)CC32O)C1 (some centres not stated),0.927
5,CN1C(=O)/C(=C/c2cn(CC(=O)N3CCOCC3)c3ccccc23)C(=O)NC1=S,1.22
6,NC(=O)CN1CC(O)CC1=O (configuration not stated),0.922
7,CC(C)C[C@@H]1NC[C@@H]2CCCN2C1=O,0.931
8,COc1ccn(C)c(=O)c1C#N,1.08
9,CC(=O)NCCSS(C)(=O)=O.CN(C)c1ccc2c(-c3ccccc3C(=O)O)c3ccc(N(C)C)cc3[o+]c2c1,1.04
10,CC(=O)O[C@@H]1CC2C(C)(C)C(=O)C=C[C@]2(C)C2CC[C@]3(C)C(=CC(=O)O[C@H]3c3ccoc3)[C@@]21C (some centres not stated),1.14
11,C[C@@H](N)[C@@H](O)c1ccccc1.Cl,1.07
12,COc1ccc(C2(CN)CCOCC2)cc1,0.946
13,Nc1ccncc1,1.03
14,CN(C)Cc1c[nH]c2ccccc12,1.05
15,Cn1ccnc1N1CCNCC1,1.02
16,CN1C(=O)NC(=O)/C(=C\c2ccc(O)cc2)C1=O,0.976
17,O=C(O)CCCc1ccc(N(CCCl)CCCl)cc1,0.942
18,CC[C@@]1(O)C[C@H](O)c2c(cc3c(c2O)C(=O)c2c(O)ccc(O)c2C3=O)[C@H]1C(=O)OC,1.11
19,CC[C@@H](C(N)=O)N1CCCC1=O,1.22
